Literature values, collected in paper PMC7890489, “Study on pharmacological properties and cell absorption metabolism of novel daidzein napsylates” (Royal Society Open Science, 2021).

Details: cited from earlier work

Substance: sodium daidzein sulphonate
- solubility in water: easily soluble in water
